The term inhibition denotes the change of the read-out against control, counted positive when it falls.

Sequences of proteins named here, by UniProt entry; tags and fusion partners are left off. A change or cut given only in a name is not applied to a line headed by its entry.
UniProt P09923: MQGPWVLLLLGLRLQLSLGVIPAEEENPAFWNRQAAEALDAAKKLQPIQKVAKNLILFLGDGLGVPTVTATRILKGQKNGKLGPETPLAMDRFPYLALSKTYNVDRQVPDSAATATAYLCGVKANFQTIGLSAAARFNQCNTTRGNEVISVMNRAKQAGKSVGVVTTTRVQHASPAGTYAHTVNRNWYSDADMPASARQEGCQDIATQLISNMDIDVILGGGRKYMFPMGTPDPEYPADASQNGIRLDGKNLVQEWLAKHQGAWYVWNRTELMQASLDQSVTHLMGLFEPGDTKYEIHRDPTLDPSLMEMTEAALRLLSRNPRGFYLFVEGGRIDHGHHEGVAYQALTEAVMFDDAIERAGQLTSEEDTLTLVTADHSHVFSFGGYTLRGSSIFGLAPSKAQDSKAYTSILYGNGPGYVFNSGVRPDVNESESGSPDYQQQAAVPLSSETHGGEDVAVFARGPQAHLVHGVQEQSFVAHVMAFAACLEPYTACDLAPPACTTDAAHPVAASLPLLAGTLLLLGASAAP

The list shows a part of the results, in another mix than the full data. Calls of active or inactive are those of the source.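 Rule for the calls: active = inhibition reaching a set limit with compound at 10 µM in the primary screen (cut at about 35% in these data); inactive = the rest.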

This assay deals with Intestinal-type alkaline phosphatase (Homo sapiens) (UniProt P09923). Description: blockers of intestinal alkaline phosphatase activity – biochemical, luminescence, uHTS, primary screen (AID 2544).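 Note: plate controls were DMSO wells with enzyme for no effect and no-enzyme buffer wells for full effect.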 As to conditions: purified IAP, CDP-Star luminescence, 30 min; at 10 µM; stronger effect = higher value.
Consider `Cc1ccc(N/C(=N/P(=O)(N2CCOCC2)N2CCOCC2)N2CCOCC2)cc1`, for which the inhibition is inactive: 1.5%.
For the molecule `COc1ccccc1OP(=O)(Nc1ccc(C)cn1)Oc1ccccc1OC`, the inhibition is inactive: -15.8%.
The result for `Cc1ccc(OP(=O)(Nc2nccs2)Oc2ccc(C)cc2)cc1` reads inactive: -18.2%; that for `Clc1ccc(Cl)c(NC2=NCC(CBr)S2)c1` (stereo not given), inactive: 14%; that for `CN1CCCC(OC(=O)C(c2ccccc2)c2ccccc2)C1` (stereo not given), inactive: -0.4%.
`CC(C)CC(=O)NC(Sc1ccc(Cl)cc1)C(Cl)(Cl)Cl` (stereo not given): the inhibition was inactive: -18.4%.
In the case of `Nc1cc(N)c2nonc2c1[N+](=O)[O-]`, the inhibition is inactive: 1.6%.
The result for `Oc1ccccc1CNc1ccccn1` reads inactive: 2.7%; that for `Cc1c2non([O-])c-2c(C)[n+](=O)[n+]1[O-]`, inactive: 9.7%; that for `O=C(NC(Sc1ccncn1)C(Cl)(Cl)Cl)c1ccccc1` (stereo not given), inactive: -1.4%.
In the case of `COc1ccc(C2=NCC(CBr)S2)cc1` (stereo not given) it was inactive: -6.1%; in that of `O=[N+]([O-])c1cccc2n[nH]nc12`, inactive: 11.1%.
The result for `CC(=O)N1C2C3N(C(C)=O)C1C1N(C(C)=O)C(C(N1C(C)=O)N3C(C)=O)N2C(C)=O` reads inactive: -1.5%; that for `Cc1ccc(NP(=O)(Oc2ccccc2)Oc2ccccc2)nc1`, inactive: -29.8%.
For the molecule `CCc1nc2c(n1)c1c(non1O)c1c2no[n+]1[O-]`, the inhibition was inactive: 19.8%.
The result for `O=[N+]([O-])c1cc([N+](=O)[O-])c(CCNc2ccccc2)c([N+](=O)[O-])c1` reads inactive: 8.8%; that for `Nc1ccc([As](=O)(O)c2ccc(N)cc2)cc1`, inactive: 0.8%; that for `C[N+]1=C2C=CC=CC=C2SC12C([N+](=O)[O-])=CC([N+](=O)[O-])=C[C-]2[N+](=O)[O-]` (stereo not given), inactive: -17.5%.
Regarding `CCN(/C(=N/P(=O)(N1CCOCC1)N1CCOCC1)N1CCOCC1)c1ccc(OC)cc1`, the inhibition is inactive: 4.9%.
For the molecule `CC(C)=N/N=C(\N)N[N+](=O)[O-]`, the inhibition is inactive: -16.5%.
The result for `CN(C)C(=O)OCCc1n(C)cc[n+]1C` reads inactive: 1.5%; that for `CC1CCN(C(=O)Oc2c(Cl)cc(Cl)c3cccnc23)CC1`, inactive: 13.4%.
In the case of `O=C(Nc1cc([As](=O)(O)O)ccc1O)c1ccccc1` it was inactive: 21.5%; in that of `CC(C)(C)C(=O)NC(Sc1ccncn1)C(Cl)(Cl)Cl` (stereo not given), inactive: -10.1%; in that of `O=[N+]([O-])c1ncn(CCn2ncnc2[N+](=O)[O-])n1`, inactive: -2.9%.
In the case of `O=[N+]([O-])c1cccc(NC2=NCC(CBr)S2)c1` (stereo not given) it was inactive: 9.5%.
Turning to `O=P(Nc1ccccn1)(c1ccc(Br)cc1)c1ccc(Br)cc1`, the inhibition was inactive: -10.8%.
In the case of `CN(C)C1(CNC(=O)c2ccc(Cl)c(S(N)(=O)=O)c2)CCCCC1` it was inactive: 22.9%.
The result for `O=P(Nc1nc2ccccc2s1)(c1ccccc1)c1ccccc1` reads inactive: -0.8%; that for `C[C@H]1OP(=O)(Oc2ccccc2)[C@H](O)[C@H](O)[C@H]1N=[N+]=[N-]` (stereo not given in full), inactive: -0.9%; that for `O=[N+]([O-])c1ncn(CCn2cnc([N+](=O)[O-])n2)n1`, inactive: -0.4%.
The result for `O=[As](O)(c1ccccc1)c1ccc(O)cc1` reads inactive: -7.3%.
Regarding `Nc1ccc([As](=O)(O)c2ccc([N+](=O)[O-])cc2)cc1`, the inhibition was inactive: 3.4%.
In the case of `C(Cc1nn[nH]n1)Cc1nn[nH]n1` it was inactive: 3%.
In the case of `O=C(OC1CN2CCC1CC2)c1cccc(Cl)c1` (stereo not given) it was inactive: -4.8%; in that of `CC(C)C(=O)NC(Sc1ccccc1)C(Cl)(Cl)Cl` (stereo not given), inactive: 4%; in that of `O=P(Nc1nccs1)(c1ccccc1)c1ccccc1`, inactive: -3.9%.
The result for `c1nnnn1CCn1cnnn1` reads inactive: -4.2%; that for `O=P1(Nc2nc3ccc(Cl)cc3s2)COc2ccccc2O1` (stereo not given), inactive: -4%; that for `CCOc1ccc(C2=NCC(CBr)S2)cc1` (stereo not given), inactive: 3.5%.
Take `CC(C)(C)C(=O)NC(Sc1ccccc1)C(Cl)(Cl)Cl` (stereo not given): the inhibition is inactive: 3.5%.
In the case of `CC(=O)c1ccc(N2CC2c2ccncc2)cc1` (stereo not given) it was inactive: 26%; in that of `Cc1ccccc1CN(C)C(=O)COC(=O)C(O)(c1ccccc1)c1ccccc1`, inactive: 3.3%.
In the case of `C[C@@H]1C=CCP(=O)(Oc2ccccc2)O1` (stereo not given in full) it was inactive: -4.3%; in that of `C[C@H]1OP(=O)(Oc2ccccc2)C[C@@H]2O[C@@H]21` (stereo not given in full), inactive: 4.7%; in that of `CC(=O)Nc1ccc([As](=O)(O)O)c(O)c1`, inactive: -12.1%.
In the case of `CC(=O)Nc1ccc(Oc2c([N+](=O)[O-])cc([N+](=O)[O-])cc2[N+](=O)[O-])cc1` it was inactive: -2.9%.
Take `CCNC(=S)/N=C(\N)N[N+](=O)[O-]`: the inhibition is inactive: 7.1%.
In the case of `O=C(NC1CCS(=O)(=O)C1)NP(=S)(Oc1ccccc1)Oc1ccccc1` (stereo not given) it was inactive: 3.1%.
In the case of `c1ccc(-c2nn[nH]n2)c(-c2nn[nH]n2)c1` it was inactive: -9.2%; in that of `CCOC(=O)NC(Sc1ccccc1)C(Cl)(Cl)Cl` (stereo not given), inactive: 16.4%; in that of `Cc1ccc(NP(=O)(Oc2cccc(C)c2)Oc2cccc(C)c2)nc1`, inactive: -18.2%.
The result for `COC(=O)c1cc2c(s1)N=C(c1ccccc1)N(C)P2(=O)N1CCOCC1` (stereo not given) reads inactive: -5.4%; that for `Cc1ccc(OP(=O)(Nc2ccccn2)Oc2ccc(C)cc2)cc1`, inactive: -8.8%.
For the molecule `CC(=O)NC(SC(=S)N(CC(C)C)CC(C)C)C(Cl)(Cl)Cl` (stereo not given), the inhibition is inactive: -29.4%.
For `O=C(OC1CN2CCC1CC2)c1ccccc1` (stereo not given), the inhibition was inactive: -9.3%.
As for `CCC(=O)N1C2C3N(C(=O)CC)C1C1N(C(=O)CC)C(C(N1C(=O)CC)N3C(=O)CC)N2C(=O)CC`, the inhibition was inactive: -5.7%.
In the case of `Cc1ccccc1OP(=O)(Nc1ccccn1)Oc1ccccc1C` it was inactive: -10.4%; in that of `CC(NC(=O)COC(=O)C(O)(c1ccccc1)c1ccccc1)c1ccccc1` (stereo not given), inactive: 2.7%; in that of `CN(C)C(=O)Oc1noc2ccccc12`, inactive: 9.5%.

For the origin of these results see PubChem BioAssay AID2544 (Sanford-Burnham Center for Chemical Genomics, 2010).
